## Yeast mating assay 1: variants of the scFv Ab-14

Source: Engelhart et al. 2022 (doi:10.1038/s41597-022-01779-4), MIT Lincoln Laboratory and A-Alpha Bio; data file from the FLAb repository.

Target: peptide PDVDLGDISGINAS, taken from heptad repeat 2 (HR2) of SARS-CoV-2 spike.

Each scFv is VH, a 15-residue (Gly4Ser)3 linker, VL, as in the parent Ab-14, and differs from it in the CDRs of the heavy chain only.
VH: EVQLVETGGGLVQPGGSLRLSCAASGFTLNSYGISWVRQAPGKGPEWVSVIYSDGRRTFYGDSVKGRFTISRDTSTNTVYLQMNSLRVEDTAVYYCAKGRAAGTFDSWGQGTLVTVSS
VL: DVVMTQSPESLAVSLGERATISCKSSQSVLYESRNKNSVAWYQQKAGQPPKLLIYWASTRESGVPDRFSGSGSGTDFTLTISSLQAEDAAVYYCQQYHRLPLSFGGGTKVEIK

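AAYL49 was designed without a model: most single CDR substitutions and a random sample of double and triple ones. AlphaSeq pools MATa yeast showing the antibodies with MATalpha yeast showing the peptide. The frequency of each diploid, read from paired DNA barcodes, reflects how well the two displayed proteins bind. Read counts were normalised to the haploid input and turned into Kd by a linear fit to BCL2-family pairs of known affinity, for each replicate. Each pool was mated in three replicate cultures.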

The parent's heavy chain CDRs are GFTLNSYGIS, VIYSDGRRTFYGDSVK, GRAAGTFDS; each variant's own CDRs replace them letter for letter. Affinities are written as log10 Kd with Kd in nM; a lower number is a better binder. A mean of the replicates is given; it leaves out those without a signal. Where no diploid with the target was found in that replicate, the entry reads "nd": below detection, most likely a poor binder, though not proof of it.

GFTLNSKGIS / VIYSDGRRTFYGDSVK / GRAAITFDS: 2.78, 2.68, 3.67 (mean 3.05; controls 1 of 9).
GFGLNSYGIS / KIYSDGRRTFYFDSVK / GRAAGTFDS: nd, nd, nd (controls 3 of 9).
GATLNSYGIS / VIYSDGRRTFYGESVK / GRAAQTFDS: nd, nd, nd (controls 0 of 9).
GFTLNSYGIS / VIYSDGRRTEYGDSVK / TCAAGTFDS: 2.38, 2.52, 2.17 (mean 2.36; controls 1 of 9).
GFTLNSTGIS / VIYSDGRRTFYGDSIK / GRAAGTFDS: 3.43, 2.93, 2.30 (mean 2.89; controls 1 of 9).
GFTLNVYGIS / VIYSDGRRTGYGDSVK / GRAAWTFDS: 4.22, 5.16, 4.28 (mean 4.55; controls 3 of 9).
GFTHNSYGAS / VIYSDGRRTFYGDSVK / GRAAGTFDS: nd, nd, 4.91 (controls 1 of 9).
YFTLNSYGIS / VIYYDGRRTFYRDSVK / GRAAGTFDS: 2.42, 2.61, 1.85 (mean 2.29; controls 0 of 9).
GFTLNSYEIE / VIYSDGRRTFYGDSVK / GRAAGTFRS: 4.04, 3.91, 4.01 (mean 3.99; controls 7 of 9).
GFTSNSYGIS / VIYSDGRRTFYGDSVK / GRAAGTFKS: nd, nd, 3.42 (controls 3 of 9).
GFTLNSYGIS / VIYSDGRRTFYDDSVK / YRAAGTFVS: nd, nd, nd (controls 1 of 9).
GFTLNSYGIS / VIYSDGNRTGYGDSVK / DRAAGTFDS: nd, nd, nd (controls 0 of 9).
VITLNSYGIL / VIYSDGRRTFYGDSVK / GRAAGTFDS: nd, nd, nd (controls 0 of 9).
GFTLNSYGIS / VIYGDGRRTFYNDSVK / GRAAGTFDF: nd, nd, nd (controls 0 of 9).
GFTENSYGIS / VYYSDGRRTFYGDSVK / GRAAGTWDS: 5.52, 3.85, 4.29 (mean 4.55; controls 2 of 9).
GFTLYSYGIS / VIYPDGRRTFYGDSTK / GRAAGTFDS: nd, nd, nd (controls 1 of 9).
GFTLNSYGSS / VIYSDGRRTFYGDMVK / GRAAGTFDD: nd, 4.48, nd (controls 0 of 9).
FFTLNSYGIS / NIYSDGRRTFYGDSVK / GRCAGTFDS: 3.62, nd, nd (controls 4 of 9).
GFTLNSYGIS / VMYSDGRRTFYFDMVK / GRAAGTFDS: nd, nd, nd (controls 0 of 9).
GFTLNSYHIS / VIYSDGRRTFYGDSVP / GRAAGTFRS: nd, nd, nd (controls 0 of 9).
GFTLNSYGIS / VIYSDGRRYFYGDSVK / GRAAGTFDS: nd, 3.31, 2.14 (mean 2.73; controls 0 of 9).
GFTLNSYGIS / VIYSDGRRTFYGYSVK / GRAAGCFDS: nd, nd, nd (controls 0 of 9).
GFTNNSYGIS / VIYALGRRTFYGDSVK / GRAAGTFDS: nd, nd, nd (controls 0 of 9).
GFTLNSYGIS / VIYSDGRQTFYEDSVK / GRAATTFDS: nd, nd, nd (controls 1 of 9).
GFTLNSYGIS / VIYSDGRTTFYSDSVP / GRAAGTFDS: nd, 3.13, nd (controls 0 of 9).
GFTLNSYGIW / VIYSDGRRTFYGDSVF / GRAASTFDS: nd, nd, nd (controls 0 of 9).
GFTLNSYGIS / VIYSDGRRTHYGDSVK / GRAAGGFDS: 1.16, 0.99, 1.41 (mean 1.19; controls 0 of 9).
GFTLNSYGIS / VIYSDGARTFYWDSVK / GRAAGTFDS: nd, nd, 5.17 (controls 1 of 9).
GFTLNSYGIS / VIYSDGRRTFYGDSVI / GRAHGTFFS: 3.19, nd, nd (controls 1 of 9).
GFTLNSYGIR / VIYSDGRRTFYGQSVK / GRAAGTFDW: 5.81, 4.39, nd (mean 5.10; controls 2 of 9).
GFTLNSYGIS / VIYSDGRRTFYGDSVK / GRAAGKFDS: 1.17, 1.20, 1.14 (mean 1.17; controls 0 of 9).
GFTLNSYGIS / VIASDGRRFFYGDSVK / GRAAGTFES: nd, nd, nd (controls 0 of 9).
GFTLNWAGIS / VIYSDGRYTFYGDSVK / GRAAGTFDS: nd, 4.30, 4.57 (mean 4.43; controls 2 of 9).
GFTLNSYDIS / VQYSDGRRTFYADSVK / GRAAGTFDS: nd, 3.17, 6.11 (mean 4.64; controls 5 of 9).
GFQLNSYGIH / VIYSDGRRTFYGDSDK / GRAAGTFDS: nd, nd, nd (controls 0 of 9).
GFTLNSYGIS / VIYLDGRRTFYGDSVK / LRAAGTFMS: nd, nd, nd (controls 0 of 9).
GFTLNSYGIS / VICSDRRRTFYGDSVK / GRAAGTFDS: nd, nd, 5.86 (controls 4 of 9).
GQTLNSYGIS / VIYSDGRRCFYGDSHK / GRAAGTFDS: nd, nd, nd (controls 1 of 9).
GFTLNSYGIS / LIYSDGRRTFYGDGVK / GSAAGTFDS: nd, nd, nd (controls 1 of 9).
GFTLNSYGIS / VAYQDKRRTFYGDSVK / GRAAGTFDS: 5.98, nd, 6.28 (mean 6.13; controls 3 of 9).
GFTLNAYGIS / VIYSDGRRTFYGPSVK / GRAAGTFDL: 2.43, 2.38, 2.50 (mean 2.44; controls 4 of 9).
GFTLNSYGIS / FIYSDGRRTHYGDSVK / FRAAGTFDS: nd, nd, 4.42 (controls 0 of 9).
GFTLNSYGDS / VIYSDGRRTRYGDSVK / GRAAGTFNS: 5.68, 5.65, nd (mean 5.67; controls 5 of 9).
GFTNNSYGIS / VIYSDLRRTFYGDSVK / GRAAGTFDS: nd, nd, nd (controls 1 of 9).
GFTLNSYGIV / VIYSDGYMTFYGDSVK / GRAAGTFDS: nd, nd, nd (controls 0 of 9).
GFTLNSYGIS / VIYSDGRRVFYGDSVK / TRAAGTFDS: 1.07, 1.42, 1.35 (mean 1.28; controls 3 of 9).
GATLNSYGIS / VIYSDGRTTFYGDSVK / GRIAGTFDS: 2.36, 2.42, 2.86 (mean 2.54; controls 1 of 9).
GFTLNSYGIS / VIYSDGRRTFYGDQVK / GRAAQTFDS: nd, nd, nd (controls 0 of 9).

Background: pairings of library AAYL49 with three empty control strains gave a value in 15% of cases (median 4.06, 5th percentile 2.83). Values in that range, when seen in few replicates, are hard to tell from nonspecific mating. Also given: how often the same scFv was detected with the empty control strains. For reference, the parent read 0.65 as the reference entry and 4.11 (one replicate of three) as a member of this library.